The values that follow are results of earlier work, collected in patent US20150072881A1 (priority 2010, published 2015).

The test system of the data set is genes (and gene products, eg., mRNA or protein). The following applies: in vivo.

For `CCCCCc1cc(O)c2c(c1)OC(C)(C)[C@@H]1CCC(C)=C[C@@H]21` [THC, Delta-tetrahydrocannabinol], the mRNA increase entry is recorded as “zif268, blocked by SL327 an inhibitor of MAPK/ERK kinase, as”.
